Values quoted from earlier work as cited in patent US20070198063A1, “Electrical devices and anti-scarring drug combinations” (priority 2005, published 2007).

Settings: solvent named in the value; cited from earlier work

phenazopyridine-HCl
solubility, in words: slightly soluble in water and alcohol
